Assay results: ChEMBL document CHEMBL5728676, “Inhibitors of RAF kinases” (2021)
pIC50: −log10 of the molar value.

Target: RAF proto-oncogene serine/threonine-protein kinase (Homo sapiens, UniProt P04049)
Experiment: Enzymatic RAF1 Kinase: Small molecule inhibition of RAF1 kinases was measured using ADP-Glo assay. In the assay, ADP is converted to ATP in the presence of test kinase and substrate, resulting in luciferase reaction and luminescent readout with light generated proportional to the relative kinase activity. Compounds diluted in DMSO were used in 10-point, 3-fold dose curve for both assays. Final concentrations of 3 nM RAF1 (CarnaBio, Cat. 09-125) and 30 nM MEK1 substrate (Millipore, Cat. 14-420) were incubated with 3 μM ATP, 10 mM MgCl2, 0.003% Brij-35, 2 mM DTT, 0.05% BSA, 1 mM EGTA, and 50 mM HEPES for 90 minutes at room temp prior to addition of ADP-Glo reagent (Promega, Cat. V9102) for 40 minutes, and detection reagent for 45 minutes. Luminescence was read on an Envision plate reader (PerkinElmer) and percent remaining activity was used to calculate IC50 using a four-parameter fit model using Dotmatics Knowledge Solutions Studies curve fitting (Dotmatics, Bishops Stortford, UK, CM23).

| Compound | pIC50 |
| --- | --- |
| Cc1ccc(NC(=O)N2CC[C@@H](CC(F)(F)F)C2)cc1-c1cc(N2CCOCC2)nc(N2C[C@@H](N)CC2=O)c1 | > 8.00 |
| Cc1ccc(NC(=O)N2CC[C@@H](CC(F)(F)F)C2)cc1-c1cc(N2CCOCC2)nc(N2C[C@H](N)CC2=O)c1 | > 8.00 |
